This assay is described as follows: Partial agonist activity at KOR in guinea pig ileum assessed as inhibition of electrically-stimulated twitch.

As for `COC(=O)/C=C/C(=O)O[C@@]12CCC(=O)[C@@H]3Oc4c(O)ccc5c4[C@@]31CCN(CC1CC1)[C@@H]2C5`, the Imax worked out at 30%. To `COC(=O)/C=C/C(=O)NC[C@H]1C[C@@]23CC[C@]1(OC)[C@@H]1Oc4c(O)ccc5c4[C@@]12CCN(CC1CC1)[C@@H]3C5` belongs 36%.
